## Apparent affinities of Ab-91 variants for a coronavirus HR2 peptide

The measurements come from Engelhart et al. 2022 (doi:10.1038/s41597-022-01779-4) through the FLAb antibody collection.

The target is the same throughout: PDVDLGDISGINAS, from the HR2 region of SARS-CoV-2 spike.

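AAYL51 was designed without a model: most single CDR substitutions and a random sample of double and triple ones. AlphaSeq pools MATa yeast showing the antibodies with MATalpha yeast showing the peptide. The frequency of each diploid, read from paired DNA barcodes, reflects how well the two displayed proteins bind. The ratio of observed to expected reads was calibrated, replicate by replicate, on BCL2-family standards whose Kd was known from biolayer interferometry. There are three technical replicates.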

Parent scFv Ab-91: VL joined to VH by a (GGGGS)3 linker. Changes lie in the heavy chain CDRs alone.
VL: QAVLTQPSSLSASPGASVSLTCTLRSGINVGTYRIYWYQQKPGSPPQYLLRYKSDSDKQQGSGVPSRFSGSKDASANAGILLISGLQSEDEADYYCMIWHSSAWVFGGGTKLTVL
VH: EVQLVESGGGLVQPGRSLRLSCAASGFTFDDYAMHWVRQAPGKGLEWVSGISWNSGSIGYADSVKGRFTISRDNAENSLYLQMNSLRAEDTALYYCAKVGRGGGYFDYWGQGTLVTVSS

Positions count from residue 1 of the parent VH; D31T puts T in place of D.
Values are log10 of the apparent Kd in nM; lower means stronger binding.
Averages over replicates are reported, and they cover detected replicates only.
"n.d." means that the variant was in the library but no mating with the target was seen in that replicate; the authors take this as a sign of poor binding, and no number exists.
As a blank, each scFv also met three strains without target: over library AAYL51, 21% of these pairings were detected, typically at 4.54 and seldom below 3.26. The control count says in how many pairings with the empty strains this scFv gave a signal, with their mean in brackets.

changes,"log10 Kd, replicates","mean, log10 nM",signal with controls
D31T K65Y Y105L,3.87 / n.d. / n.d.,3.87,0/9
W53Y I58T R101F,n.d. / n.d. / n.d.,n.d.,1/9 (5.29)
D31Y A61G K65R,5.17 / 4.46 / n.d.,4.82,4/9 (3.98)
Y32C G104H F106Y,4.23 / n.d. / n.d.,4.23,0/9
W53C Y105I,5.62 / n.d. / n.d.,5.62,6/9 (4.58)
S57Q A61W Y105W,4.34 / 5.98 / n.d.,5.16,2/9 (4.06)
F27A I51T S63M,n.d. / 3.41 / n.d.,3.41,1/9 (3.52)
N54C G59V V99L,n.d. / n.d. / n.d.,n.d.,0/9
Y32M S63W D107M,n.d. / n.d. / n.d.,n.d.,1/9 (4.08)
A33C S55G S63I,n.d. / n.d. / n.d.,n.d.,2/9 (3.64)
D30G M34R Y105S,n.d. / n.d. / n.d.,n.d.,1/9 (2.84)
Y32L S52L G103P,n.d. / n.d. / n.d.,n.d.,0/9
A61M D62W D107I,n.d. / n.d. / n.d.,n.d.,0/9
G50S G56V D62R,4.09 / 4.34 / n.d.,4.21,4/9 (4.55)
Y32P Y60L K65P,n.d. / 4.95 / n.d.,4.95,2/9 (3.55)
Y32M S52I D107P,n.d. / n.d. / n.d.,n.d.,0/9
I58D Y60A V99M,2.94 / 2.86 / 2.52,2.77,1/9 (2.82)

Further variants, results first:

"log10 Kd, replicates","mean, log10 nM",signal with controls,changes
n.d. / 4.35 / n.d.,4.35,2/9 (3.85),G100E F106L
6.31 / n.d. / n.d.,6.31,4/9 (4.45),F27G I51Y G103T
3.97 / 5.64 / n.d.,4.81,1/9 (4.55),D30C D31T M34A
n.d. / n.d. / n.d.,n.d.,1/9 (3.61),H35K S52C R101G
3.26 / 5.25 / n.d.,4.25,3/9 (3.89),T28W R101E
n.d. / n.d. / n.d.,n.d.,0/9,G26I M34E G104A
n.d. / n.d. / n.d.,n.d.,1/9 (4.87),H35W G59S G100N
3.96 / n.d. / n.d.,3.96,2/9 (3.96),D30A D31T S57A
4.08 / 4.80 / n.d.,4.44,2/9 (4.41),F29D M34L S57E
5.72 / 4.75 / 5.42,5.30,4/9 (4.71),V99H R101F Y108E
5.32 / n.d. / n.d.,5.32,3/9 (3.84),Y32F G59Q S63Y
n.d. / 5.77 / n.d.,5.77,3/9 (4.09),A61P F106H
4.09 / 4.71 / 5.23,4.68,7/9 (5.01),D62M V99N
n.d. / n.d. / n.d.,n.d.,0/9,T28G G50M S57A
n.d. / n.d. / n.d.,n.d.,0/9,W53C S55F I58R
n.d. / n.d. / n.d.,n.d.,1/9 (4.09),G26R G103H
4.28 / 4.93 / n.d.,4.60,3/9 (4.60),Y60C A61V V64F
n.d. / n.d. / n.d.,n.d.,1/9 (3.35),S57H Y60W Y105L

The first 3 entries again:

| changes | log10 Kd, replicates | mean, log10 nM | signal with controls |
|---|---|---|---|
| D31T K65Y Y105L | 3.87 / n.d. / n.d. | 3.87 | 0/9 |
| W53Y I58T R101F | n.d. / n.d. / n.d. | n.d. | 1/9 (5.29) |
| D31Y A61G K65R | 5.17 / 4.46 / n.d. | 4.82 | 4/9 (3.98) |

For reference, the parent read 1.86 as the reference entry and 0.88 as a member of this library.